# Antibody variant affinities, Ab-14 heavy chain, assay 1

Source: Engelhart et al. 2022 (doi:10.1038/s41597-022-01779-4), MIT Lincoln Laboratory and A-Alpha Bio; data file from the FLAb repository.

Target peptide (SARS-CoV-2 spike, HR2 region): PDVDLGDISGINAS

The variants keep the light chain, the linker and the frameworks of Ab-14 (scFv order VH, three GGGGS repeats, VL).
VH: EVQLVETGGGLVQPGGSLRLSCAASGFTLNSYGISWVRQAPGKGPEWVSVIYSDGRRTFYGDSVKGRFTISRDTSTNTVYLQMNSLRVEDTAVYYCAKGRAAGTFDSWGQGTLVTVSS
VL: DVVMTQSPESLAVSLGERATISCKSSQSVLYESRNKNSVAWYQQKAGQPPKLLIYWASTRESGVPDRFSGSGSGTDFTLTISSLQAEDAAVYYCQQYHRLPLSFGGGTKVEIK

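Variants in AAYL49 differ from the parent at up to three CDR positions; double and triple changes were sampled at random. AlphaSeq pools MATa yeast showing the antibodies with MATalpha yeast showing the peptide. After mating in shaken culture at 30 °C for 16 h, diploids were selected and their barcode pairs sequenced. The ratio of observed to expected reads was calibrated, replicate by replicate, on BCL2-family standards whose Kd was known from biolayer interferometry. There are three technical replicates.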

Variants are written as CDR1, CDR2 and CDR3 of the heavy chain (limits as in the source). Parent: GFTLNSYGIS, VIYSDGRRTFYGDSVK, GRAAGTFDS. Numbers give log10(Kd / nM), so 0 is 1 nM and 3 is 1 µM. Smaller is tighter. A mean of the replicates is given; it leaves out those without a signal. "no signal" marks a missing value. The strain was present, yet no cells mated with the target were sequenced in any replicate, which points to weak or no binding. Nonspecific signal, from three strains lacking the peptide, appeared in 15% of pairings of library AAYL49, centred on 4.06 (5% of these signals below 2.83); values are not corrected for it. In this assay the parent's reference entry averaged 0.65; its copy inside this library read 4.11 (one replicate of three).

| CDR-H1 | CDR-H2 | CDR-H3 | mean log10 Kd (nM) | detected |
|---|---|---|---|---|
| GFTLTSYGIS | SIYSDGRCTFYGDSVK | GRAAGTFDS | 2.33 | 3/3 |
| GFTYNSYGIS | VIYEDGRRTFYGDSVM | GRAAGTFDS | 4.12 | 1/3 |
| GFTLNWYGIS | VIYSDGRRHFYGDSVK | GRAAGTFMS | no signal | 0/3 |
| IFTLNSYGIS | VRYSDGRWTFYGDSVK | GRAAGTFDS | no signal | 0/3 |
| GFTLNSYGIS | PIYHDGRRTFYGDSVK | GRAAGTFDS | no signal | 0/3 |
| GFTLNSYGIS | PIYWDGRRTFYGDSVK | GRAAGTDDS | no signal | 0/3 |
| GFTLVSYGIS | VIYSDGRRTFYGDSVK | GRAEGTFYS | no signal | 0/3 |
| GFILNSNGIS | VIYSDGRRTFYGDSVK | GRIAGTFDS | 3.77 | 1/3 |
| GFTLNSYGIS | VPYSDGRRTFYGDSSK | GRADGTFDS | no signal | 0/3 |
| GFTLNSYGIS | VAYSDGRRTFYGDSAK | GRAALTFDS | no signal | 0/3 |
| GFTLSSYGIS | VIRSDGRRTFYGDSVV | GRAAGTFDS | 3.62 | 1/3 |
| GFTLESYGIS | VIYHDGRRTFYGDSVT | GRAAGTFDS | 2.18 | 2/3 |
| GFTLNSYGIS | VIYSDGPRTQYGDSVK | GRACGTFDS | 3.58 | 3/3 |
| GFTLNSYGIS | VIYSDGRRTSYCDSVK | GRAAGTFDW | 1.15 | 3/3 |
| GFRLNSYGIS | VIYSDGRRTFYGDYVK | GRAQGTFDS | no signal | 0/3 |
| GFTLQSYGIS | VIYRDGRRTFYGDSVK | WRAAGTFDS | no signal | 0/3 |
| GFTLNSYGIS | MIYSDIRRTFYGDSVK | ARAAGTFDS | no signal | 0/3 |
| QFTLNSYTIS | VIYSDGRRTFYGDSVK | GEAAGTFDS | 3.10 | 1/3 |
| GFTLNSYGIS | VVYSDGRREFYGDSVK | GQAAGTFDS | 3.61 | 2/3 |
| GFTLNYYGIS | VIMSDGRLTFYGDSVK | GRAAGTFDS | no signal | 0/3 |
| GFTLNSYGIS | VIYSIGRRTFYGMSVK | CRAAGTFDS | 4.87 | 2/3 |
| GFTLNSYGIS | VIYSDGRRWFHGDSVK | GRAAGTFDS | 4.21 | 1/3 |
| GFKLNSYGIQ | SIYSDGRRTFYGDSVK | GRAAGTFDS | 3.26 | 1/3 |
| GFTLNRYGIS | VIYSDGRRTFYGDSVK | GRWAGTFDI | 0.81 | 3/3 |
| GFTLNSYAIS | VIYSDGRRTFYGDAVK | GRAAGTDDS | no signal | 0/3 |
| GFTLNWYGIS | VIYSDGARTFYRDSVK | GRAAGTFDS | 1.53 | 3/3 |
| GFTLNSYGIS | VSYSDGRRTFYGKSEK | GRAAGTFDS | 4.70 | 1/3 |
| GFTLNSYGIS | VIYSDGWKFFYGDSVK | GRAAGTFDS | 4.05 | 1/3 |
| GFTLNSYGIS | IIYSDGRRTFYGHSVK | GRAAGTFDS | 2.70 | 1/3 |
| GFTLNSEGIS | VIYSDGRRTFYGDSDK | GRAAGTFDR | no signal | 0/3 |
| GFTQNSYGIS | VIYNDGRRTDYGDSVK | GRAAGTFDS | 5.34 | 2/3 |
| GFTLESYGIS | VIYSDGRRTFYGDSVK | GRAAGTFPS | 0.50 | 3/3 |
| GFTLNSYGIS | IIYSDGRRTFYGCSVK | GRAAGTFDS | no signal | 0/3 |

Second part, the sequence after the result:

| mean log10 Kd (nM) | detected | CDR-H1 | CDR-H2 | CDR-H3 |
|---|---|---|---|---|
| 3.97 | 1/3 | GCTLNSYGIS | IIYSDGRRTFYGDSVK | GRAAGTFDS |
| no signal | 0/3 | GFTLNSPGIS | VIYSDGRRTFYPDSVK | GRAAGTPDS |
| 4.53 | 2/3 | GFTLNSYGIS | VKASDGRRTFYGDSVS | GRAAGTFDS |
| no signal | 0/3 | GFTLNSYGIS | VIYGDGRRTFYGDSVK | NRAAGVFDS |
| 4.85 | 2/3 | GFTTNSYGIS | VIYSDGRRTKYGDSVK | GRAAGTWDS |
| no signal | 0/3 | GFTLNSYGIS | VIYNYGRRTFYGDSVI | GRAAGTFDS |
| no signal | 0/3 | GFTLWSYEIS | VIYSDGRRTFYGDSVK | GRAAGTFRS |
| 3.66 | 1/3 | GFTLNSYGIS | LIYSDGARTFYGWSVK | GRAAGTFDS |
| no signal | 0/3 | GFMLNSYGIS | VIYSDGRRTFYGDSVK | GFAAGTFMS |
| no signal | 0/3 | GFTLNSYGAV | VIYSDGRRTHYGDSVK | GRAAGTFDS |
| no signal | 0/3 | GFTVNSYGIS | VIYSDGRRTFYGDSVK | GRIWGTFDS |
| 2.10 | 3/3 | GFTLNSYGIS | VIYSDGRRSFYGNSVK | GRAGGTFDS |
| no signal | 0/3 | GFTLNSYVGS | VIYSDGRRTFYGDSVK | GRQAGTFDS |
| no signal | 0/3 | GFTLNSYGIS | VIYSDRRNTFYGDSVK | GRLAGTFDS |
| 2.14 | 3/3 | GFTLNSYGIS | VIYSDGRRTFYGASVW | GRAAGTFDY |
| 3.40 | 3/3 | GFTLNSEGIS | VIYSDGCRTFYGDSVK | GRATGTFDS |
| 4.50 | 1/3 | GFCLNSYGIS | VYYSDGRRTFYGYSVK | GRAAGTFDS |
| 4.54 | 2/3 | GFTLNSYGIS | VKYSDGRRTFYGDSVK | RRAAGTFDH |
| no signal | 0/3 | GFTLNSYGIS | VIYSDYRRYFYGDSVK | GYAAGTFDS |
| no signal | 0/3 | GFTLNRYGIS | CIYSDGWRTFYGDSVK | GRAAGTFDS |
| 3.26 | 1/3 | GFTLNSWGIS | VIYSDGRRTAYGDSVK | GRAAGTCDS |
| no signal | 0/3 | GFTLNNYGIS | VIYSDGRYTFYGDSVK | GRAAGTSDS |
| no signal | 0/3 | GFTLNSYGIS | VAYSDGRRTFYGDSVK | GWAAGTFDI |
| 3.03 | 1/3 | GFTLNSYGKS | VIYWDGRRTFYGDSVK | GRAAITFDS |
| 0.91 | 3/3 | GFTLTSYGIS | VIYSDGRRTFYGDSVQ | GRAAGTFDS |
| 4.10 | 2/3 | GFTLNSYGIT | VKYSDGRRTFYGDSVK | GRAASTFDS |
| 1.16 | 3/3 | EFTLNNYGIS | VIYSDGRRTFYGDSVK | GGAAGTFDS |
| 3.76 | 2/3 | GQTCDSYGIS | VIYSDGRRTFYGDSVK | GRAAGTFDS |
| 4.39 | 3/3 | GVTLNSVGIS | VIYSDGRRTFYGDSFK | GRAAGTFDS |
| 3.49 | 1/3 | GFTENSYKIR | VIYSDGRRTFYGDSVK | GRAAGTFDS |
| 5.10 | 2/3 | GFTLNSYNIS | VIYSDGRRTFYGDSVK | GGAAGTFDS |
| no signal | 0/3 | HFTLNSYGIS | VWYSDGRRTFYGDQVK | GRAAGTFDS |
| no signal | 0/3 | GFTLNSYGIS | VIYSDATRTFYGDSVK | GRAAGTFIS |
| 4.49 | 2/3 | TFTLNSHGIS | VIYSDGRRTFYGDSVK | GRAFGTFDS |

For reference, 6 entries of the list once more:

| CDR-H1 | CDR-H2 | CDR-H3 | mean log10 Kd (nM) | detected |
|---|---|---|---|---|
| GCTLNSYGIS | IIYSDGRRTFYGDSVK | GRAAGTFDS | 3.97 | 1/3 |
| GFTLSSYGIS | VIRSDGRRTFYGDSVV | GRAAGTFDS | 3.62 | 1/3 |
| GFKLNSYGIQ | SIYSDGRRTFYGDSVK | GRAAGTFDS | 3.26 | 1/3 |
| GQTCDSYGIS | VIYSDGRRTFYGDSVK | GRAAGTFDS | 3.76 | 2/3 |
| GFTLNSYGIS | VIYSDATRTFYGDSVK | GRAAGTFIS | no signal | 0/3 |
| GFTLNSYGIS | VAYSDGRRTFYGDSVK | GWAAGTFDI | no signal | 0/3 |